Assay results: patent US9340555B2, “Compounds as tyrosine kinase modulators” (Allergan, Inc., priority 2009, dated 2016)

Protein sequences, listed by entry. Tags and fused reporters are not part of them. Residues count along the entry.
UniProt P17948, 27-1338, species assumed: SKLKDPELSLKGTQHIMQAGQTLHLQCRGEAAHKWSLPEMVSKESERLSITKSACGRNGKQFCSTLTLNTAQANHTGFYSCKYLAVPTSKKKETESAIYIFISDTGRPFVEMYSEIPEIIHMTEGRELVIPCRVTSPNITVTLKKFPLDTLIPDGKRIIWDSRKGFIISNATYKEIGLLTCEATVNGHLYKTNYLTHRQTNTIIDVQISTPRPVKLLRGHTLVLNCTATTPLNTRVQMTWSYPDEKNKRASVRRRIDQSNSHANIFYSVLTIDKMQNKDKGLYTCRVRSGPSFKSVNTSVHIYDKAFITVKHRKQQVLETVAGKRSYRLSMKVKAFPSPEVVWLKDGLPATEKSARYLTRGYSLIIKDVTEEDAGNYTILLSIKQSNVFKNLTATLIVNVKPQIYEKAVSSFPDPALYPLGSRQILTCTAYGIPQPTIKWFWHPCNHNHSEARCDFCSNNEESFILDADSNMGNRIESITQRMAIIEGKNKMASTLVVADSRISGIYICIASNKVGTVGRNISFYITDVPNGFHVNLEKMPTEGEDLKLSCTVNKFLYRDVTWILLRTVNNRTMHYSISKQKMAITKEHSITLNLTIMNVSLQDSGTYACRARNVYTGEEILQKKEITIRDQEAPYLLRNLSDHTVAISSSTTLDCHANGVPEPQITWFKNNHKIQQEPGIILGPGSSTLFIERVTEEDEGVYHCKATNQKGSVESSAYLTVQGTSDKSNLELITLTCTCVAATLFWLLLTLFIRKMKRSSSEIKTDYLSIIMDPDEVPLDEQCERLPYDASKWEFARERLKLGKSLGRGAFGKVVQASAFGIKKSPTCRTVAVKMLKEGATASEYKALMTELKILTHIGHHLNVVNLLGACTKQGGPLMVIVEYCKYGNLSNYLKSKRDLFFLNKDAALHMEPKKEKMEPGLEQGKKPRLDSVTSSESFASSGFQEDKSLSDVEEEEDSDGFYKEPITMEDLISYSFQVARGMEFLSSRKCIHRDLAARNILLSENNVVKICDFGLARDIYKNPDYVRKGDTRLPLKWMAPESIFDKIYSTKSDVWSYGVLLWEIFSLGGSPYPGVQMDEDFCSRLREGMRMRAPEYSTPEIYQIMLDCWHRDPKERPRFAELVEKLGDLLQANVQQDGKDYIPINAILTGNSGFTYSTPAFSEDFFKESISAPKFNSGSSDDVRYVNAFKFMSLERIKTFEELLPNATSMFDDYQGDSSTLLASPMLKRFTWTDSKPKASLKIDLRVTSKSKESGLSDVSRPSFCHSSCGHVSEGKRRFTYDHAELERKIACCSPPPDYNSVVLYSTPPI
UniProt P09619, 33-1106, species assumed: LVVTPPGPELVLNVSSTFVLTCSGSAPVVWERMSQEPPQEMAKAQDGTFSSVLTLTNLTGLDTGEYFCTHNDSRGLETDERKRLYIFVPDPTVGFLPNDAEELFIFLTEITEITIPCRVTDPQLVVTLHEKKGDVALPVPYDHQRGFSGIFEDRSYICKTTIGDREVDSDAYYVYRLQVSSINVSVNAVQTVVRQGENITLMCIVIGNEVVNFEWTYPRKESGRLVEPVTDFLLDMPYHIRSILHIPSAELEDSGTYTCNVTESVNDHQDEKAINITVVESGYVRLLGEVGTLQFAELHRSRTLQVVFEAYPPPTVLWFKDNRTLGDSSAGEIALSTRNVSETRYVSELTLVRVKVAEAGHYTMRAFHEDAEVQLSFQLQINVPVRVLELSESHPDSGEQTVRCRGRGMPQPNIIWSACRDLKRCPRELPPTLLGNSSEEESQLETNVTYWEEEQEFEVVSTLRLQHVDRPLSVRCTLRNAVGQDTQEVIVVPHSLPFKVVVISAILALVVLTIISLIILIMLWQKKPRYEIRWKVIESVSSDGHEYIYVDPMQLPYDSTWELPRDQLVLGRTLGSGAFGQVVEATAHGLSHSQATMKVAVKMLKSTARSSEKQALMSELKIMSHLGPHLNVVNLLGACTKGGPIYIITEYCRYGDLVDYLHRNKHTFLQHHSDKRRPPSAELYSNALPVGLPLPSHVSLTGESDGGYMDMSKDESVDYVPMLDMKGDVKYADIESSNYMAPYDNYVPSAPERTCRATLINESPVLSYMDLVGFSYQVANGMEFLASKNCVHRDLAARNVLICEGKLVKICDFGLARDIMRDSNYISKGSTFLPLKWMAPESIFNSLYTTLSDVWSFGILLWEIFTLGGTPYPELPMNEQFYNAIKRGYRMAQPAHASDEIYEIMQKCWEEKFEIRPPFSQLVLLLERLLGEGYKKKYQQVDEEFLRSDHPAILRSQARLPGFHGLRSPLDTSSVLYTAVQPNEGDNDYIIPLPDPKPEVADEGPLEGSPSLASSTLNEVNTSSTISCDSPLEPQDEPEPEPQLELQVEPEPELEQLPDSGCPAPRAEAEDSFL
UniProt P35968, 20-1356: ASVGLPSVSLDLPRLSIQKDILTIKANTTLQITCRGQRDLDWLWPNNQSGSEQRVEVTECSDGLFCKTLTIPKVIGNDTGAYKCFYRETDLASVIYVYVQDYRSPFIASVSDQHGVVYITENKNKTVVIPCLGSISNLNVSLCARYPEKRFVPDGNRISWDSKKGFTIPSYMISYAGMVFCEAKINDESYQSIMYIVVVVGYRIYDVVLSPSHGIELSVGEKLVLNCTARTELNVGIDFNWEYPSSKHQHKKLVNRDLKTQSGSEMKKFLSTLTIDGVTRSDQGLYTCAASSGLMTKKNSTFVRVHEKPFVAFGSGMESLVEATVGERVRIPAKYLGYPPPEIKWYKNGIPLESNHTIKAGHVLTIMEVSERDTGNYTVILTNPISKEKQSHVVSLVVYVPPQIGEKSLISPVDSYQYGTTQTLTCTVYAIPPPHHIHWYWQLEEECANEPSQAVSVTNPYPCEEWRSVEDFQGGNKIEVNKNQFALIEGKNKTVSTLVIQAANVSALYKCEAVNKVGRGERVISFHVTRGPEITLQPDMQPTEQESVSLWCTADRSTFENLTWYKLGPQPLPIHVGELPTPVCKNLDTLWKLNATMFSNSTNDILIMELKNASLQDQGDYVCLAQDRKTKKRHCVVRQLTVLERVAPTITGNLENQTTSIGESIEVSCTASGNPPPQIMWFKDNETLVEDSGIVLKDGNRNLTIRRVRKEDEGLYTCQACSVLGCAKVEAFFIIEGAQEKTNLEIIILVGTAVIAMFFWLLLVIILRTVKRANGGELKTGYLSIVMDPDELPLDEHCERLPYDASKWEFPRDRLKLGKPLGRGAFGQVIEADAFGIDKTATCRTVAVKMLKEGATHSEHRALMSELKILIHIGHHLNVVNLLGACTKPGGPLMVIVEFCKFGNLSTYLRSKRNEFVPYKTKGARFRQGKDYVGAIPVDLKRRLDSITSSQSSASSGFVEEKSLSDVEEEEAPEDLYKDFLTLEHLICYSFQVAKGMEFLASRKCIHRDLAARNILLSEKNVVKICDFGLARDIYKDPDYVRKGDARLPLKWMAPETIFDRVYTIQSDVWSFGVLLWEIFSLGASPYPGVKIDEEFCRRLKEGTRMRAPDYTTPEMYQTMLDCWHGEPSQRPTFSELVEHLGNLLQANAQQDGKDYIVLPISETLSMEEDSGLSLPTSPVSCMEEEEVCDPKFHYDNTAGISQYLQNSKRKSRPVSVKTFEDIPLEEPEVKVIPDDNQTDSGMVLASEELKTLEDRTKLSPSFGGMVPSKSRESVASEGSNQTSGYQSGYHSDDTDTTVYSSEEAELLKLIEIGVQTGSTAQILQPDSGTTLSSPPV
UniProt P35968, 786-1356: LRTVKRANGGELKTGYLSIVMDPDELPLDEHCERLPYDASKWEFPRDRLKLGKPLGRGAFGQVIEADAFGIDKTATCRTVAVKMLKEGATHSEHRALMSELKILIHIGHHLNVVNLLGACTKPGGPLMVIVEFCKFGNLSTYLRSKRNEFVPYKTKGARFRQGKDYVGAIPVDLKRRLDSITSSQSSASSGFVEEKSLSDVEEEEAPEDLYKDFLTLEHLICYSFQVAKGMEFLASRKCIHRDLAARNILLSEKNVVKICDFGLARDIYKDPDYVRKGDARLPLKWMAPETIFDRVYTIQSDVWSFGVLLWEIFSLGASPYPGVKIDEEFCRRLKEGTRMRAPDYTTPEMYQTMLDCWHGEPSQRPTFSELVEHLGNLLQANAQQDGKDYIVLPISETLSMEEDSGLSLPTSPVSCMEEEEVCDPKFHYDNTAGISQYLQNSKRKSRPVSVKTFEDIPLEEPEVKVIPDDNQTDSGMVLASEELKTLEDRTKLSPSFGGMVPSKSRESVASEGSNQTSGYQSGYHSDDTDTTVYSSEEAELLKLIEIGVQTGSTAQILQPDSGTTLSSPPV

How the values were obtained:
[1] = molecular target: VEGFR1 (Homo sapiens (Human), UniProt P17948); test: Enzymic VEGFR1; type: biochemical
[2] = molecular target: PDGFRβ (Homo sapiens (Human), UniProt P09619); test: Enzymic PDGFRβ; type: biochemical
[3] = molecular target: VEGFR2 (Homo sapiens (Human), UniProt P35968); test: VEGF Stimulated Ca++ Signal In Vitro (Cellular VEGFR2, FLIPR); type: cell-based; conditions: HUVEC, VEGF stimulation (5 ng/mL), intracellular calcium
[4] = molecular target: human VEGF receptor (VEGFR-2) (Homo sapiens (Human), UniProt P35968); test: VEGFR2 Kinase Assay (Enzymic VEGFR2); type: biochemical; conditions: His-VEGFR-2 cytoplasmic domain, 3.6 µM ATP
Description: VEGFR2 Kinase Assay The cytoplasmic domain of the human VEGF receptor (VEGFR-2) was expressed as a Histidine-tagged fusion protein following infection of insect cells using an His engineered baculovirus. […] Kinase assays were performed in 96 well microtiter plates that were coated overnight with 30 µg of poly-Glu-[…]:1) in 10 mM Phosphate Buffered Saline (PBS), pH 7.2-7.4. The plates were incubated with 1% BSA and then washed four times with PBS prior to starting the reaction. […] Reactions were initiated by the addition 0.5 ng of purified protein. Following a ten minute incubation at 25° C., the reactions were washed four times with PBS containing 0.05% Tween-20. 100 µl of a monoclonal anti-phosphotyrosine antibody-peroxidase conjugate was diluted 1:10000 in PBS-Tween-20 and added to the wells for 30 minutes. Following four washes with PBS-Tween-20, 100 µl of 0-phenylenediamine Dihydrochloride in Phosphate-citrate buffer, containing urea hydrogen peroxide, was added to the wells for 7 minutes as a colorimetric substrate for the peroxidase. […] IC50 values for compound inhibition were calculated directly from graphs of optical density (arbitrary units) versus compound concentration following subtraction of blank values.

Row | IC50 [1] [nM] | IC50 [2] [nM] | IC50 [3] [nM] | IC50 [4] [nM] | SMILES
1 | 10 | 15 |  |  | COC(=O)[C@@H]1C[C@@H](O)CN1CCCNC(=O)c1cc2nccc(Oc3ccc(NC(=O)Nc4cc(C)ccc4F)cc3)c2s1 (relative stereo) [Example 17, methyl rel-(2R,4S)-1-{3-[({7-[4-({[(2-fluoro-5-methylphenyl)amino]carbonyl}amino)phenoxy]thieno[3,2-b]pyridin-2-yl}carbonyl)amino]propyl}-4-hydroxypyrrolidine-2-carboxylate]
2 | 3 | 12 | 9 | 3 | CCN(CC)CCCNC(=O)c1cc2nccc(Oc3ccc(NC(=O)Nc4cc(C)ccc4F)cc3)c2s1 [Example 70, N-[3-(diethylamino)propyl]-7-[4-({[(2-fluoro-5-methylphenyl)amino]carbonyl}amino)phenoxy]thieno[3,2-b]pyridine-2-carboxamide]
